Tested on: goat antibody against human serum albumin
Experiment: microELISA of electrospray-deposited protein antigens on IMMOBILON-P filter
Format: binding
Conditions: primary antibody against human serum albumin 1:1000, AP-labeled secondary antibody 1:3000
Procedure: Different antigens (serum albumins from human and ox, ovalbumin and human hemoglobin) were electrospray deposited onto a wetted IMMOBILON-P membrane filter through a mask having multiple holes. After each deposition of a different protein antigen, the mask was shifted by 1.1 mm. After depositing all four protein antigens, the membrane filter was dried for 15 min. at 37° C. and blocked by soaking in a PBS solution (10 mM sodium phosphate buffer, pH 7.2, 0.9% NaCl) with 0.05% Tween-20, 1% chicken albumin (ovalbumin). After blocking, the membrane filter was soaked in a solution of a goat antibody against human serum albumin (Sigma, diluted 1:1000) for an hour. The filter was then washed twice with PBS buffer for 10 seconds and reacted with a solution of anti-goat IgG antibodies labeled with alkaline phosphatase (Sigma, diluted 1:3000). After washing off excess anti-goat antibodies with PBS, the position of the enzyme-labeled spot was identified by soaking the filter in a solution of an alkaline phosphatase substrate capable of producing an insoluble product as described in Example 3.

human serum albumin: protein antigen electrospray deposited onto IMMOBILON-P filter
spot intensity in microELISA: the most intense
